Activity calls are given as the source filed them.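 Rule for the calls: active = a tumor-causing dose value with its tumor site reported for any sex and species group of a rodent or other animal cancer study; inconclusive = only studies judged inadequate by the national testing program; inactive = tested in at least one study, none positive.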 A call without a number means that no potency is given here.

The data set is described as follows: DSSTox (CPDBAS) Carcinogenic Potency Database Summary SingleCellCall Results. The note with it: animal chronic carcinogenicity bioassays, CPDB summary call. From the text: The Carcinogenic Potency Database (CPDB) is a unique and widely used international resource of the results of over 6500 chronic, long-term animal cancer tests on over 1500 chemical substances. The CPDB provides easy access to the bioassay literature, with qualitative and quantitative analyses of both positive and negative experiments that have been published over the past 50 years in the general literature and by the National Cancer Institute/National Toxicology Program. The CPDB standardizes the diverse literature of cancer bioassays that vary widely in protocol, histopathological examination and nomenclature, and in the published author's choices of what information to provide in their papers. Results are reported in the CPDB for tests in rats, mice, hamsters, dogs, and nonhuman primates, and are based on the most positive result among all experiments for each sex-species. The DSSTox CPDBAS (all species) file incorporates data from the CPDB Summary Tables for the full list of over 1500 chemical substances tested in at least one species. A summary SingleCellCall, based on experimental bioassay results of one or more species, is provided for the entire DSSTox CPDBAS file (see Source URL).
An assignment of categorical carcinogenic activity based on minimal evidence for or against activity. […] Associated TD50 values and tumor site details for the relevant species/sex experiment supporting this overall CPDBAS SingleSiteCall are provided in the full CPDBAS DSSTox file (see Comment) and the corresponding CPDBAS Species Bioassay in PubChem.
With `O=[N+]([O-])OCC(CO[N+](=O)[O-])(CO[N+](=O)[O-])CO[N+](=O)[O-]`, the outcome was inactive. Then `ClCl`, with “inactive; active”. For `CN(C)[N+](=O)[O-]`, the result was active.

Take `O=[N+]([O-])c1cc([N+](=O)[O-])cc([N+](=O)[O-])c1`: the outcome was “inactive; active”. Take `COP(C)(=O)OC`: the result was active. In the case of `Cc1c([N+](=O)[O-])cccc1[N+](=O)[O-]`, the outcome was active. Then `CN[N+](=O)[O-]`, with “active”.

The values above are taken from PubChem BioAssay AID1189 (EPA DSSTox, 2008).
